From patent US20250152528A1, “RAPID RELIEF SPRAY” (HALEON US HOLDINGS LLC, priority 2022, published 2025)

With `CCN(CC)CC(=O)Nc1c(C)cccc1C` [lidocaine free base, lidocaine] as the molecule, how does the “lidocaine crystallization, vial 2” value (Example 1 composition adjusted to pH=4.0 with more citric acid) read?
Its value is “several lidocaine free base crystals”.

And the “lidocaine crystallization, vial 3” value (Example 1 composition adjusted to pH=4.5)?
Its value is “no lidocaine free base crystallization was observed”.

What about the “lidocaine crystallization, vial 1” value (Example 1 composition, vial 1 (pH=3.5), more citric acid) of the same molecule?
The value was “more lidocaine free base crystals”.
